Consider two molecules from BindingDB's records for PubMed 1347569 (Stanford University, 1992).

By UniProt entry, the sequences of proteins in these tests, tags left out.
UniProt P14842, whole entry: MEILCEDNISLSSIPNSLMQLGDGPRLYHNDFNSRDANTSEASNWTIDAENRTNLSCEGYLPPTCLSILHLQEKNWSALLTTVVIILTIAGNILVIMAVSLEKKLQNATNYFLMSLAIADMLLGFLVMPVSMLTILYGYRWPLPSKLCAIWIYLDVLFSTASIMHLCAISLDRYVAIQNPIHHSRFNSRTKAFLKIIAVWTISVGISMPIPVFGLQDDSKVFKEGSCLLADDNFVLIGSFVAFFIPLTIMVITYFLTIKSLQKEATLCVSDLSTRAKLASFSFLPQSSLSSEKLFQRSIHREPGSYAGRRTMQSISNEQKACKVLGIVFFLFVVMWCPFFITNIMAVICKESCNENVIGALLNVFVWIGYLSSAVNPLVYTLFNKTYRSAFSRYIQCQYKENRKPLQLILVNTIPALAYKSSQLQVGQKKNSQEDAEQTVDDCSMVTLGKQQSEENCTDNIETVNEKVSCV

Experiment [1] has as its target 5-hydroxytryptamine receptor 2A (Rattus norvegicus, UniProt P14842).
In experiment [2] the target is T1, 5-hydroxytryptamine receptor 2C (Rattus norvegicus, UniProt P08909).
T1 sequence (P08909 whole entry): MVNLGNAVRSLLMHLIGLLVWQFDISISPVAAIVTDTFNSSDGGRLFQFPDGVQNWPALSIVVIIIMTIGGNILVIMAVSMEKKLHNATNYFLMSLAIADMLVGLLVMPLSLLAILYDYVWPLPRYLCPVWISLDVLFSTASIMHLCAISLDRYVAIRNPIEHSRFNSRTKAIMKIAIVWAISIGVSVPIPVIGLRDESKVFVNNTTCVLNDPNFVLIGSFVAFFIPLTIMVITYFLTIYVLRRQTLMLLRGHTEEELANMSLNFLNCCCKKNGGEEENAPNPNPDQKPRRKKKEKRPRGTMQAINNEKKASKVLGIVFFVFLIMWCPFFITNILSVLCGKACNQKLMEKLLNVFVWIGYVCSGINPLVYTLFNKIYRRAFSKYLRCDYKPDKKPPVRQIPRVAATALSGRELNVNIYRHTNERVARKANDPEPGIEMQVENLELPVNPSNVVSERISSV

With `CN1CCN(C2=Nc3ccccc3Oc3ccc(Cl)cc32)CC1` [13-chloro-10-(4-methylpiperazin-1-yl)-2-oxa-9-azatricyclo[9.4.0.0^{3,8}]pentadeca-1(11),3,5,7,9,12,14-heptaene], the affinity in experiment [1] corresponds to a Ki of 2 nM.
For `O=C(CCCN1CCC2(CC1)C(=O)NCN2c1ccccc1)c1ccc(F)cc1` [8-[4-(4-fluorophenyl)-4-oxidanylidene-butyl]-1-phenyl-1,3,8-triazaspiro[4.5]decan-4-one], the Ki (usually a dissociation constant, usually derived from enzyme kinetics or from competition with a known ligand) in experiment [1] was determined as 0.4 nM; in experiment [2], 957 nM.
